Test results from patent publication US20010053848A1, “Hetero-oligomeric G protein-coupled receptors as novel drug targets” (priority 2000, published 2001).

By UniProt entry, the sequences of proteins in these tests, tags left out. Where a name states a change or a piece, a line headed by the entry shows the natural chain unless it says otherwise.
UniProt P14416, whole entry: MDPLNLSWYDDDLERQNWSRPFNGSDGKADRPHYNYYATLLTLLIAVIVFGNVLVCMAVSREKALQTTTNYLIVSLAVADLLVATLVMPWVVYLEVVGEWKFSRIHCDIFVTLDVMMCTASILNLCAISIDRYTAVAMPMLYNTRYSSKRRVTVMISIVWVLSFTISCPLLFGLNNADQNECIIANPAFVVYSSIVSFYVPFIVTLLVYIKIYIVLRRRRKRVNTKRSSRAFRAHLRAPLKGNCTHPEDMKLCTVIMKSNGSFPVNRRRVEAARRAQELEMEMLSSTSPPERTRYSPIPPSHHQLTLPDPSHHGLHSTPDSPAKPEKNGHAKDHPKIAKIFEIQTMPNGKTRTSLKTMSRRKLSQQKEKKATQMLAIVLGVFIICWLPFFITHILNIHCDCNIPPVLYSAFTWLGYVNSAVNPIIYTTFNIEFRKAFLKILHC
UniProt P35346: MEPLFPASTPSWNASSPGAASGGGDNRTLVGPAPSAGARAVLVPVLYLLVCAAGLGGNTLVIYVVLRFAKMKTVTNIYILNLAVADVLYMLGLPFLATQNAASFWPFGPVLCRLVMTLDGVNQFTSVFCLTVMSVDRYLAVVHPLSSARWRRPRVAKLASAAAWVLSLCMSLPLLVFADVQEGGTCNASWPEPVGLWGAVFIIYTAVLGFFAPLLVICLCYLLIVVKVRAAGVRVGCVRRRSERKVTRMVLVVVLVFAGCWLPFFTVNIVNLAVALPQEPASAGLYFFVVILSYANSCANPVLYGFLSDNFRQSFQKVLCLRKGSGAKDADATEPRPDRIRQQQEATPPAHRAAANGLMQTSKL

Molecular target: HA-SSTR5 and D2R (Homo sapiens, UniProt P14416+P35346)

Structure (SMILES): CCc1cc(Cl)c(OC)c(C(=O)NC[C@@H]2CCCN2CC)c1O [eticlopride]
- effect on GTPγS-induced reduction of [125I]-LTT-SST-28 binding (G protein coupling): not affected
